Data: patent US20130209543A1, “ENHANCED TREATMENT REGIMENS USING MTOR INHIBITORS” (Intellikine LLC, priority 2011, published 2013)

How the values were obtained:
Type in all cases: biochemical
PI3K γ = PI3K γ (Homo sapiens, UniProt P48736); assay: PI3K γ kinase assay
PI3K α = PI3K α (Homo sapiens, UniProt P42336); assay: PI3K α kinase assay
mTOR = biological target: T1, mTOR (Homo sapiens, UniProt P42345); assay: mTOR kinase inhibition assay; details: Table 1
T1 construct: purchased Invitrogen

PI3K δ = PI3K δ (Homo sapiens, UniProt O00329); assay: PI3K δ kinase assay; details: Table 1
PI3K β = PI3K β (Homo sapiens, UniProt P42338); assay: PI3K β kinase assay; details: Table 1

IC50 (PI3K γ; Table 1): > 10 µM
SMILES: CNc1noc2ccc(-c3nn(C(C)C)c4ncnc(N)c34)cc12 [Compound 15]

SMILES: Nc1nc2cc(-c3nn(C4CCC(N5CCOCC5)CC4)c4ncnc(N)c34)ccc2o1 (centres unmarked) [Compound 6]
IC50 (PI3K γ; Table 1): < 10 µM
IC50 (PI3K α; Table 1, read-out: PI3K α IC50): < 10 µM

SMILES: COc1cccc2cc(-c3nn(C(C)C)c4ncnc(N)c34)[nH]c12 [Compound 10]
IC50 (PI3K γ; Table 2): > 0.5 µM
IC50 (PI3K α): > 0.5 µM

IC50 (PI3K γ; Table 1): > 10 µM
SMILES: CCOC(=O)C(C)n1nc(-c2ccc3oc(N)nc3c2)c2c(N)ncnc21 (centres unmarked) [Compound 24]

SMILES: Nc1ncnc2c1c(-c1cc3cc(O)ccc3[nH]1)nn2C1CCCC1 [Compound 12]
IC50 (PI3K γ; Table 2): 0.1 to 0.5 µM

IC50 (PI3K γ; Table 1): > 10 µM
SMILES: Nc1noc2ccc(-c3nn(CCN4CCOCC4)c4ncnc(N)c34)cc12 [Compound 18]

SMILES: CC(=O)Nc1nc2ccc(-c3nn(C(C)C)c4ncnc(N)c34)cc2o1 [Compound 3]
IC50 (mTOR): < 10 µM
IC50 (PI3K δ): < 10000 nM
IC50 (PI3K γ; Table 1): < 10 µM

SMILES: CC(C)n1nc(-c2ccc3c(NC4CC4)noc3c2)c2c(N)ncnc21 [Compound 14]
IC50 (PI3K γ; Table 1): < 1 µM

IC50 (PI3K δ): < 1000 nM
IC50 (PI3K β): < 1000 nM
SMILES: Nc1nc2cc(-c3nn(C4CC(O)C4)c4ncnc(N)c34)ccc2o1 (centres unmarked) [Compound 26]

SMILES: CC(C)n1nc(-c2ccc3onc(NC4CC4)c3c2)c2c(N)ncnc21 [Compound 16]
IC50 (PI3K γ; Table 1): < 10 µM

SMILES: Nc1nc2cc(-c3cn(C4CCOCC4)c4ncnc(N)c34)ccc2o1 [Compound 9]
IC50 (PI3K δ): < 1000 nM
IC50 (PI3K γ; Table 1): < 1 µM

Read-outs that look alike come from different tables or passages of the source. Each block holds one compound with its values, some of them ahead of it.
